# Source: US20040266823A1 (priority 2001, published 2004)
# Sequences of proteins named here, by UniProt entry; tags and fusion partners are left off.
# UniProt P51681, whole entry: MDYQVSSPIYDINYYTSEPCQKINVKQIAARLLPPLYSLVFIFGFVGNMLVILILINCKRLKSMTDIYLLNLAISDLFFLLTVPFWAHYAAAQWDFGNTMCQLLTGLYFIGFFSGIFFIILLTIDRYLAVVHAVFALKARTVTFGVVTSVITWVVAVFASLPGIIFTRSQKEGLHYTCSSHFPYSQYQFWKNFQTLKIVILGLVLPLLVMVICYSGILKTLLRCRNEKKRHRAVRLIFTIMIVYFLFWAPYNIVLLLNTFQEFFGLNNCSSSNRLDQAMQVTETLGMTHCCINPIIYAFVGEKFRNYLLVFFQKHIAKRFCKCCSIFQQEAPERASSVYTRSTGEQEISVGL
# Molecular target: recombinant human CCR5 receptor (Homo sapiens, UniProt P51681)
# Assay: MIP-1α radioligand binding assay (scintillation proximity)
# Conditions: displacement of 0.1 nM iodinated MIP-1α, membranes from Chinese hamster ovary cells, average if tested more than once
# Description: The ability of compounds to inhibit the binding of MIP-1α was assessed by an in vitro radioligand binding assay. Membranes were prepared from Chinese hamster ovary cells which expressed the recombinant human CCR5 receptor. These membranes were incubated with 0.1 nM iodinated MIP-1α, scintillation proximity beads and various concentrations of the compounds of the invention in 96 well plates. The amount of iodinated MIP-1α bound to the receptor was determined by scintillation counting. Competition curves were obtained for compounds and the concentration of compound which displaced 50% of bound iodinated MIP-1α was calculated (IC50).
# In Table II the results are presented as Pic50 values. A Pic50 value is the negative log (to base 10) of the IC50 result, so an IC50 of 1 μM (that is 1×10^−6M) gives a Pic50 of 6. If a compounds was tested more than once then the data below is an average of the probative tests results.
Compound,Pic50,Pic50 (tested form: HCl)
CCN(C(=O)Cc1ccc(S(C)(=O)=O)cc1)C1CCN(CC[C@H](NC(=O)NC2CCCC2)c2ccccc2)CC1,8.2,–
CCN(C(=O)Cc1ccc(S(C)(=O)=O)cc1)C1CCN(CC[C@H](NC(=O)c2cnsn2)c2ccccc2)CC1,–,7.01
